Measured values from US9040534B2 (Janssen Pharmaceutica NV, priority 2013, dated 2015).

Chains of the proteins cited; added tags and fusions are not shown. Lines headed by an entry give the natural chain unless they say otherwise; changes in a name come on top.
UniProt Q99572: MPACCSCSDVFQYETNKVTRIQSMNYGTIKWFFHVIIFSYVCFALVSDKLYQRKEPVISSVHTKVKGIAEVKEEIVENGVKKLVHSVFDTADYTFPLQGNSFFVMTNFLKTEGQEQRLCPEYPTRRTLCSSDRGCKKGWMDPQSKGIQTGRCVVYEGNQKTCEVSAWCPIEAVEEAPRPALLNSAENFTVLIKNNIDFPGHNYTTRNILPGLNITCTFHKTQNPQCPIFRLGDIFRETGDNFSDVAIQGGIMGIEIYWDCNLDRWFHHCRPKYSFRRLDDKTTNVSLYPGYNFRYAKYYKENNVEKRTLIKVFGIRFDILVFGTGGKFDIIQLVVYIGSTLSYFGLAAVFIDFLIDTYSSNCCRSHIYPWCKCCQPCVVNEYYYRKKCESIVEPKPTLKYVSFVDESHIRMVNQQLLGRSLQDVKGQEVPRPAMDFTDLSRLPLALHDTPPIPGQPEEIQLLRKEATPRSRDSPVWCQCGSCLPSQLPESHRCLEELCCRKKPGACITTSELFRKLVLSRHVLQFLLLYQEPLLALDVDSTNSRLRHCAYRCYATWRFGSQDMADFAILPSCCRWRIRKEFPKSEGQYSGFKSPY
UniProt Q64663: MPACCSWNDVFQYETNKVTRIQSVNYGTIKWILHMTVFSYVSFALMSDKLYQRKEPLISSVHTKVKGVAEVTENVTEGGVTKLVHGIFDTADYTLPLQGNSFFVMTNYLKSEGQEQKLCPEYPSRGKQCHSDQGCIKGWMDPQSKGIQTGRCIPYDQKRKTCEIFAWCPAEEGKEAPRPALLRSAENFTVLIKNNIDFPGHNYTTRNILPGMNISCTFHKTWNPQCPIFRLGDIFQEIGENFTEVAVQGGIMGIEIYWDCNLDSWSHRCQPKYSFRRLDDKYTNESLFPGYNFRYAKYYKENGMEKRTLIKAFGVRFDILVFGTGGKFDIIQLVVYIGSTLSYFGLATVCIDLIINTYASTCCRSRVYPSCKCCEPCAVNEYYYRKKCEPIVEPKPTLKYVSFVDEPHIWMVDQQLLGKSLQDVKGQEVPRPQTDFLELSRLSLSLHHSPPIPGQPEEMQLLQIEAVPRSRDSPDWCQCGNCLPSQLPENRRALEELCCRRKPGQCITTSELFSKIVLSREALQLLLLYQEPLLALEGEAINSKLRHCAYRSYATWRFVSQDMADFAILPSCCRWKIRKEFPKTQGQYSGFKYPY

Tests used:
P2X7 = P2X7 (Homo sapiens (Human), UniProt Q99572); experiment: Radioligand binding, human P2X7-1321N1 cell membranes, tritiated A-804598 tracer; settings: 1 hour at 4° C.
Protocol: (B) Radioligand binding: human or rat P2X7-1321N1 cells were collected and frozen @ −80° C. On the day of the experiment, cell membrane preparations were made according to standard published methods. […] The compound can be prepared as described in the literature. […] The assay was terminated by filtration (GF/B filters pre-soaked with 0.3% PEI) and washed with washing buffer (Tris-HCl 50 mM). The IC50 generated in the binding assay was corrected for tracer concentration and affinity of the tracer to derive at the affinity (Ki) of the test compounds.

rat P2X7 [1] = target: T1, rat P2X7 (Rattus norvegicus (Rat), UniProt Q64663); experiment: Radioligand binding, rat P2X7-1321N1 cell membranes, tritiated A-804598 tracer; settings: 1 hour at 4° C.
Protocol: (B) Radioligand binding: human or rat P2X7-1321N1 cells were collected and frozen @ −80° C. On the day of the experiment, cell membrane preparations were made according to standard published methods. The total assay volume was 100 μl:10 μl compound (10×)+(b) 40 μl tracer (2.5×)+50 μl membrane (2×). The tracer used for the assay was tritiated A-804598. The compound can be prepared as described in the literature. (Donnelly-Roberts, D. Neuropharmacology 2009, 56 (1), 223-229.) Compounds, tracer and membranes were incubated for 1 hour @ 4° C. The assay was terminated by filtration (GF/B filters pre-soaked with 0.3% PEI) and washed with washing buffer (Tris-HCl 50 mM). The IC50 generated in the binding assay was corrected for tracer concentration and affinity of the tracer to derive at the affinity (Ki) of the test compounds.

rat P2X7 [2] = target: T1, rat P2X7; experiment: Ca2+ flux (FLIPR) in 1321N1 cells expressing recombinant rat P2X7 channel; type: cell-based; settings: 250 μM BzATP
Protocol: (A) Ca^2+ Flux: 1321N1 cells expressing the recombinant human, rat or mouse P2X7 channel was cultured in HyQ DME/(HyClone/Dulbecco's Modified Eagle Medium) high glucose supplemented with 10% Fetal Bovine Serum (FBS) and appropriate selection marker. Cells were seeded at a density of 25000 cells/well (96-well clear bottom black walled plates) in 100 μl volume/well. On the day of the experiment, cell plates were washed with assay buffer, containing (in mM): 130 NaCl, 2 KCl, 1 CaCl2, 1 MgCl2, 10 HEPES, 5 glucose; pH 7.40 and 300 mOs. After the wash, cells were loaded with the Calcium-4 dye (Molecular Device) and incubated in the dark for 60 minutes. Test compounds were prepared at 250× the test concentration in neat DMSO. Intermediate 96-well compound plates were prepared by transferring 1.2 μL of the compound into 300 μL of assay buffer. A further 3× dilution occurred when transferring 50 μL/well of the compound plate to 100 μL/well in the cell plate. Cells were incubated with test compounds and dye for 30 minutes. […] The fluorescence change was measured 180 seconds after adding the agonist.

SMILES | Ki (P2X7) | Ki (rat P2X7 [1]) | IC50 (rat P2X7 [2])
CC[C@H]1Cn2c(nnc2-c2ncc(F)cn2)C(=O)N1Cc1cccc(C(F)(F)F)c1Cl [Example 75, (6S)-7-[2-Chloro-3-(trifluoromethyl)benzyl]-6-ethyl-3-(5-fluoropyrimidin-2-yl)-6,7-dihydro[1,2,4]triazolo[4,3-a]pyrazin-8(5H)-one] | 3.2 nM | 1.8 nM | –
CC(c1ccccc1)N1C(=O)c2nnc(-c3cnccn3)n2C[C@@H]1C (stereo partly drawn) [Example 92, (6S)-6-Methyl-7-(1-phenylethyl)-3-pyrazin-2-yl-6,7-dihydro[1,2,4]triazolo[4,3-a]pyrazin-8(5H)-one] | – | 16.4 nM | –
C[C@H](c1ccccc1)N1C(=O)c2nnc(-c3cnccn3)n2C[C@@H]1C (relative stereo) [Example 94, (6S)-6-Methyl-7-[(1R*)-1-phenylethyl]-3-pyrazin-2-yl-6,7-dihydro[1,2,4]triazolo[4,3-a]pyrazin-8(5H)-one] | – | 123 nM | –
O=C1c2nnc(-c3cc[nH]n3)n2CC(C2CC2)N1Cc1cccc(C(F)(F)F)c1Cl (racemic) [Example 68, (±)-7-[2-Chloro-3-(trifluoromethyl)benzyl]-6-cyclopropyl-3-(1H-pyrazol-3-yl)-6,7-dihydro[1,2,4]triazolo[4,3-a]pyrazin-8(5H)-one] | 4 nM | – | 11.8 nM
C[C@H]1Cn2c(nnc2-c2ccc(F)cc2)C(=O)N1Cc1cccc(C(F)(F)F)c1Cl [Example 17, (6S)-7-[2-Chloro-3-(trifluoromethyl)benzyl]-3-(4-fluorophenyl)-6-methyl-6,7-dihydro[1,2,4]triazolo[4,3-a]pyrazin-8(5H)-one] | – | 5 nM | –
Cc1cnc(-c2nnc3n2C[C@H](C)N(Cc2cccc(C(F)(F)F)c2Cl)C3=O)cn1 [Example 19, (6S)-7-[2-Chloro-3-(trifluoromethyl)benzyl]-6-methyl-3-(5-methylpyrazin-2-yl)-6,7-dihydro[1,2,4]triazolo[4,3-a]pyrazin-8(5H)-one] | 3.2 nM | 6.3 nM | –
C[C@H]1Cn2c(nnc2-c2ncccn2)C(=O)N1Cc1cccc(C(F)(F)F)c1Cl [Example 27, (6S)-7-[2-Chloro-3-(trifluoromethyl)benzyl]-6-methyl-3-pyrimidin-2-yl-6,7-dihydro[1,2,4]triazolo[4,3-a]pyrazin-8(5H)-one] | – | 0.4 nM | –
C[C@H]1Cn2c(nnc2-c2cscn2)C(=O)N1Cc1cccc(C(F)(F)F)c1Cl [Example 32, (6S)-7-[2-Chloro-3-(trifluoromethyl)benzyl]-6-methyl-3-(1,3-thiazol-4-yl)-6,7-dihydro[1,2,4]triazolo[4,3-a]pyrazin-8(5H)-one] | 2 nM | 0.4 nM | –
CC[C@H]1Cn2c(nnc2-c2cccnc2)C(=O)N1Cc1cccc(C(F)(F)F)c1Cl [Example 73, (6S)-7-[2-Chloro-3-(trifluoromethyl)benzyl]-6-ethyl-3-pyridin-3-yl-6,7-dihydro[1,2,4]triazolo[4,3-a]pyrazin-8(5H)-one] | 12.6 nM | – | 133 nM
O=C1c2nnc(-c3cccnc3)n2CC(C2CC2)N1Cc1cccc(C(F)(F)F)c1Cl (racemic) [Example 67, (±)-7-[2-Chloro-3-(trifluoromethyl)benzyl]-6-cyclopropyl-3-pyridin-3-yl-6,7-dihydro[1,2,4]triazolo[4,3-a]pyrazin-8(5H)-one] | 7.9 nM | – | 283 nM
C[C@H]1Cn2c(nnc2-c2cnco2)C(=O)N1Cc1cccc(C(F)(F)F)c1Cl [Example 22, (6S)-7-[2-Chloro-3-(trifluoromethyl)benzyl]-6-methyl-3-(1,3-oxazol-5-yl)-6,7-dihydro[1,2,4]triazolo[4,3-a]pyrazin-8(5H)-one] | 6.3 nM | 25.1 nM | –
C[C@H]1Cn2c(nnc2-c2cocn2)C(=O)N1Cc1cccc(C(F)(F)F)c1Cl [Example 21, (6S)-7-[2-Chloro-3-(trifluoromethyl)benzyl]-6-methyl-3-(1,3-oxazol-4-yl)-6,7-dihydro[1,2,4]triazolo[4,3-a]pyrazin-8(5H)-one] | 1.4 nM | 3.5 nM | 1580 nM
